Data reported in patent US10772967B2, “Enhanced anticancer agent” (priority 2014, dated 2020).

Biological target: T1, GnRH-R (Rattus norvegicus, UniProt P30969)
T1 construct: from tissue; host or cells: pituitary gland of living male Sprague-Dawley rats
T1 sequence (P30969 1-327): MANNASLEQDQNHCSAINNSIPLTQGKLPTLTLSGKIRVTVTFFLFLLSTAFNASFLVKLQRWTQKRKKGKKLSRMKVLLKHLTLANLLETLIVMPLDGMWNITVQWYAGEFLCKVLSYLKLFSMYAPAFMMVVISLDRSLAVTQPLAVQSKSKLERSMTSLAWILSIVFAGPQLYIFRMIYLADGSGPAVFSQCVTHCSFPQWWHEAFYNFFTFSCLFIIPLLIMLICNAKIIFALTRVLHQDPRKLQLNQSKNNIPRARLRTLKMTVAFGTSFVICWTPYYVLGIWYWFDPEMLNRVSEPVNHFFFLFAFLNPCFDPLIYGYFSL
Experiment: Efficacy of Conj4 in rats, serum testosterone by ELISA
Assay type: in vivo
Procedure: For control, a third group (N=3) of rats was administered only vehicle. Testosterone levels in serum were determined using ELISA and concentrations were expressed as means (±SEM).
GnRH agonists interact with GnRH-R in the pituitary gland. […] Therefore, the in vivo efficacy of Conj4 on circulating levels of testosterone was evaluated in male rats. […] In vehicle treated rats, a normal circadian rhythm of testosterone was observed (normal range of serum testosterone in rat is 0.7-5 ng/ml).
Serum samples were collected, for each rat and stored in a −20° C. until assayed for testosterone. […] Testosterone levels were expressed as means (±SEM). Significant differences between groups of animals were determined by one way analysis of variance with post hoc Dunnett's multiple comparisons test at each particular time point (GraphPad Prism).

Cc1n[nH]c(C)c1CCCOc1cc(OCCCc2cn(CCOCCOCCOCCC(=O)NCCCCC(NC(=O)C(Cc3ccc(O)cc3)NC(=O)C(CO)NC(=O)C(Cc3c[nH]c4ccccc34)NC(=O)C(Cc3c[nH]cn3)NC(=O)C3CCC(=O)N3)C(=O)NC(CC(C)C)C(=O)NC(CCCNC(=N)N)C(=O)N3CCCC3C(=O)NCC(N)=O)nn2)cc(C(=O)O)c1 (stereo not drawn) [Conj4]
time for testosterone to return to vehicle treated levels / pretreatment range (male rats, single i.v. 120 picomoles/kg): ≤ 24 h | serum testosterone level at 1 h (male rats, single i.v. 120 picomoles/kg, 1 h after injection): 35.6 ± 3.2 ng/mL | serum testosterone level at 6 h (male rats, single i.v. 120 picomoles/kg, 6 h): 25.6 ± 2.8 ng/mL | serum testosterone level at 8 h (male rats, single i.v. 120 picomoles/kg, 8 h): 18.9 ± 1.0 ng/mL | serum testosterone level at 12 h (male rats, single i.v. 120 picomoles/kg, 12 h post dosing): 12.7 ± 2.3 ng/mL | increase of testosterone above basal levels at 12 h (vs vehicle treated rats, 12 h post dosing): ~16 fold
